Measurements as given in patent publication US10421743B2, “Tetrahydroisoquinolines as PRMT5 inhibitors” (CTXT PTY LTD, priority 2016, dated 2019).
Read-outs that look alike come from different tables or passages of the source.

Amino acid sequences for entries named in this document (tags omitted).
UniProt O14744, whole entry: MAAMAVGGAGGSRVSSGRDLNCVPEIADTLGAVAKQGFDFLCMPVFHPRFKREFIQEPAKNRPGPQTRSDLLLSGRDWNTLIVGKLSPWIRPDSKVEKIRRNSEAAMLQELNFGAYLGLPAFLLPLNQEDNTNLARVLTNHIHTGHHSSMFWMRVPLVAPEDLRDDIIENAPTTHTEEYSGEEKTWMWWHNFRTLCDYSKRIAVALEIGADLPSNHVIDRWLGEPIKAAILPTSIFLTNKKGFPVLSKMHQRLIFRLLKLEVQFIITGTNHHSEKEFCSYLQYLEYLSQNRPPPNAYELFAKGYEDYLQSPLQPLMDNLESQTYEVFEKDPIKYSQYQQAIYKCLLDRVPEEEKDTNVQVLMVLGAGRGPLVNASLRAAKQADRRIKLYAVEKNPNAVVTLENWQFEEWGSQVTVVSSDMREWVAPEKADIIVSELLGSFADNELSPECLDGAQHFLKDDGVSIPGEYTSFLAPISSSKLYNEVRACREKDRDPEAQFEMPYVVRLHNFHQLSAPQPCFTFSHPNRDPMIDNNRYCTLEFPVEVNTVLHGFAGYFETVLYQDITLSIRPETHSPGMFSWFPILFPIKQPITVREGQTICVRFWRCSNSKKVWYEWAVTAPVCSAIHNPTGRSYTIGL
UniProt Q9BQA1, whole entry partner: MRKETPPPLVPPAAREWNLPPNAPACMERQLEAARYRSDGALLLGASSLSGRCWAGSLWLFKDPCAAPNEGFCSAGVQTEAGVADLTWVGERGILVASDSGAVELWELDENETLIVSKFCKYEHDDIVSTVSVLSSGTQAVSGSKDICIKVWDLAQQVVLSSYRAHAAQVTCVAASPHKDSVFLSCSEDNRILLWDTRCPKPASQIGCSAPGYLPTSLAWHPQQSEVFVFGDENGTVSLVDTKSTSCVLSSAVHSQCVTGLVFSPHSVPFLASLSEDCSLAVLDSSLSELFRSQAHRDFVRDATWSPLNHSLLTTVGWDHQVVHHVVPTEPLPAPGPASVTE

Assays:
[1] = target: Full-length (FL)-PRMT5-MEP50 enzyme complex (Homo sapiens (Human), UniProt O14744); test: PRMT5-MEP50 Enzyme Methylation Assay (SAMDI); conditions: 0.5 nM PRMT5-MEP50, 75 nM biotinylated H4R3(Me1) peptide, 15 μM SAM, 150 minutes at 37° C.
Description: PRMT5-MEP50 Enzyme Methylation Assay
PRMT5/MEP50 biochemical assay is a direct measurement of the methylation activity of the enzyme complex on a short peptide substrate derived from the N-terminus of H4 histone. Methylation experiment is performed with recombinant protein. The assessment of inhibitory effect (IC50) of small molecules is measured by the effectiveness of the compounds to inhibit this reaction.
In this assay, the potency (IC50) of each compound was determined from a twenty-point (1:2 serial dilution; top compound concentration of 100000 nM) titration curve using the following outlined procedure. To each well of a white ProxiPlus 384 well-plate, 100 nL of compound (1% DMSO in final assay volume of 10 μL) was dispensed, followed by the addition of 8 μL of 1× assay buffer (50 mM Bicine pH 8.0, 1 mM DTT, 0.004% Tween20, 0.01% BSA) containing 0.5 nM of Full-length (FL)-PRMT5-MEP50 enzyme complex (recombinant proteins from baculovirus-transfected Sf21 cells: FL-PRMT5; MW=[…] and FL-MEP50; MW=38614). Plates were sealed and placed in a 37° C. humidified chamber for 30 minutes pre-incubation with compounds. Subsequently, each reaction was initiated by the addition of 2 μL 1× assay buffer containing 75 nM biotinylated H4R3(Me1) peptide, and 15 μM S-(5′-Adenosyl)-L-Methionine Chloride (SAM). […]

[2] = tested on: PRMT5 (symmetric dimethylation of arginine (SDMA) in MCF-7 cells); test: PRMT5 Cell Target Engagement (TE) Assay (SDMA, high content imaging); conditions: read-out: TE Assay (EC50), treated for 3 days, top compound concentration of 10000 nM
Text: PRMT5 Cell Target Engagement (TE) Assay
The PRMT5 TE assay is a biomarker assay for identifying compounds that inhibit symmetric dimethylation of arginine (SDMA) of PRMT5 substrates. This assay detects symmetrically dimethylated nuclear proteins using high content imaging technology. Detection of the expression of symmetrically dimethylated nucleo proteins is through a mixture of primary rabbit monoclonal antibodies to SDMA (CST 13222), which in turn recognized by an Alexafluor 488 dye-conjugated anti-rabbit IgG secondary antibody. The IN Cell Analyzer 2200 measures nuclear Alexafluor 488 fluorescent dye intensity that is directly related to the level of expression of symmetrically dimethylated nuclear proteins at the single cell level. Nuclear AF488 dye intensities are compared to the mean value for DMSO treated cells […] to report percent of inhibition for each compound-treated well.
In this assay, the cell potency (EC50) of each compound was determined from a ten point (1:3 serial dilution; top compound concentration of 10000 nM) titration curve using the following outlined procedure. Each well of a BD falcon collagen coated black/clear bottom 384-well plate was seeded with 4000 MCF-7 cells and allowed to attach for 5 hours. Media from cell plate was removed at 0.5 mm above the bottom of the plate and replaced with 30 μL of fresh media containing 1.2× compounds in 0.1% DMSO. […]

How did the EC50 ([1]; read-out: Enzyme Methylation Assay (EC50—1), first EC50 of biphasic fit) turn out when `CCc1ccc2c(c1)CN[C@H]([C@H](O)CNC(=O)c1ccc(C(=O)N3C4CCC3COC4)cc1)C2` was run?
Its EC50 is 1 nM.

What about the EC50 ([1]; read-out: Enzyme Methylation Assay (EC50—2), second EC50 of biphasic fit) of the same molecule?
Its EC50 is 549 nM.

And the EC50 [2]?
Its EC50 is 345 nM.
